Reference: patent publication US9617272B2, “Tricyclic compounds as inhibitors of immunosuppression mediated by tryptophan metabolization” (NewLink Genetics Corporation, priority 2013, dated 2017)

By UniProt entry, the sequences of proteins in these tests, tags left out. Where a name states a change or a piece, a line headed by the entry shows the natural chain unless it says otherwise.
UniProt P48775: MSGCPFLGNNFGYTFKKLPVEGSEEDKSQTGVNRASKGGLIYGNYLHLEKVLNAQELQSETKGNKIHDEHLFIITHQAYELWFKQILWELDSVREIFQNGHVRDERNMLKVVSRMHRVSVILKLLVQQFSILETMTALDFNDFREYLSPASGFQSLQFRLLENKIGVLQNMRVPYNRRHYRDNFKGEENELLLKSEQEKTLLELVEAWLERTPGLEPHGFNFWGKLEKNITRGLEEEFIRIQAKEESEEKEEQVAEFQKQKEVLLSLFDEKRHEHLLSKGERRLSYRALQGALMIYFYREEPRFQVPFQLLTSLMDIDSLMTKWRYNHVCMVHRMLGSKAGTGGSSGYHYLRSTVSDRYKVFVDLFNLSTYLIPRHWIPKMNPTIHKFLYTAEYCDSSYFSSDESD
UniProt P14902, whole entry P110S/E119G: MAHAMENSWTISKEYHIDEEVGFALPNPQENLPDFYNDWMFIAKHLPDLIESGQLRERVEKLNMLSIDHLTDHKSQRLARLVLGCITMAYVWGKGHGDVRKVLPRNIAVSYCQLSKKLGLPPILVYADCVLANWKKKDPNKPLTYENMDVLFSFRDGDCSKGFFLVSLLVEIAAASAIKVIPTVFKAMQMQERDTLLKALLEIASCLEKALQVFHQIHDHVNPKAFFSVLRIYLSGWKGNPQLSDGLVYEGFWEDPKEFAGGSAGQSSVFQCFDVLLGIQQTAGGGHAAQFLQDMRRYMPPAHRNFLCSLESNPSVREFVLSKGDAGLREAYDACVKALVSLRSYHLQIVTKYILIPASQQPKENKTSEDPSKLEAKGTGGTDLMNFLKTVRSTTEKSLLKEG

Key:
[1] = target: purified human TDO protein (Homo sapiens (Human), UniProt P48775); assay: Enzymatic TDO assay; type: biochemical
Protocol: Differently from the IDO activity assay, no methylene blue is added to the assay. The inhibitors were initially diluted in DMSO at 100 mM and were diluted in potassium phosphate 50 mM, added to the reaction mixture at final concentrations raging from 300 μM to 5 nM and preincubated with the enzyme for 5 min at 25° C. The reaction was started by addition of L-tryptophan to 200 μM and incubated 15 min at 37° C. The reaction was stopped by addition of 0.5 vol of 30% trichloroacetic acid and incubated 30 min at 60° C. to hydrolyze N-formylkynurenine to kynurenine. The reaction was centrifuged at 3400 g for 5 min to remove precipitated protein and the supernatant was reacted with 2% (w/v) of p-dimethylaminobenzaldehyde in acetic acid. The reaction was incubated 10 min at 25° C. and read at 480 nm in a spectrophotometer. Control samples with no TDO inhibitor, or with no TDO enzyme were used as controls to set the parameters for the non-linear regressions necessary for determination of the IC50 for each compound. Nonlinear regressions and determination of the IC50 values were performed using the GraphPad Prism 4 software.

[2] = target: purified human IDO protein (Homo sapiens (Human), UniProt P14902); assay: Enzymatic IDO assay; type: biochemical
Protocol: Expression vectors for human indoleamine-2,3-dioxygenase (IDO) protein were prepared by amplification of a 1219 bp fragment of the sequence present in vector phIDO6His cDNA with primers 5′-ggagcatgcta[…]-3′ (SEQ ID NO: 1) and 5′gagagatct[…]-3′ (SEQ ID NO: 2) and cloning the SphI-BglII 1213 bp fragment into pQE70 (Qiagen), to yield vector pQE70-hIDO. This construct adds 2 extra amino acids and a 6-Histidine tag to the C-terminus of the natural human IDO protein while preserving intact the natural start codon and N-terminus amino acid sequence.
Plasmid pQE70-hIDO was transformed into M15(pREP4) cells (Qiagen) and clones were selected in LB-agar plates supplemented with carbenicillin 50 μg/mL and kanamycin 30 μg/mL. Protein expression was carried out by growing an overnight culture of the M15pREP4/pQE70-hIDO clone in 100 mL LB supplemented with 100 μg/mL carbenicillin, 50 μg/mL kanamycin and 50 μg/mL of L-tryptophan (LBCKT medium). 40 mL of this culture were inoculated into 750 mL of LBCKT for 4 hours at 37° C. […]
The inhibitors were initially diluted in DMSO at 100 mM and were diluted in potassium phosphate 50 mM, added to the reaction mixture at final concentrations raging from 1 mM to 5 nM and preincubated with the enzyme for 5 min at 25° C. […] The reaction was incubated 10 min at 25° C. and read at 480 nm in a spectrophotometer.

Row | Structure (SMILES) | IC50 [1] | IC50 [2]
1 | Cc1ccc(NC(=O)N2CCC(C(O)CC3c4ccccc4-c4cnnn43)CC2)cc1 (stereo not drawn) [Compound 67, 4-(2-(8H-[1,2,3]triazolo[5,1-α]isoindol-8-yl)-1-hydroxyethyl)-N-(p-tolyl)piperidine-1-carboxamide] | 10 to 100 µM | 
2 | OC(CC1c2ccccc2-n2cncc21)C1CCCCC1 (centres unmarked) [Compound 70, 1-cyclohexyl-2-(9H-imidazo[1,5-a]indol-9-yl)ethan-1-ol] |  | < 1 µM
